The entries are a selection whose mix differs from that of the whole data set. Results filed as inconclusive are left out. Active and inactive are the calls of the source. The call rests on the fitted dose curve; in most records, active means well fitted curve in the direction sought with a large enough effect; inconclusive means small, poorly fitted or top-dose-only effect, or effect the other way; inactive means no such curve, though single readings can be large or run the other way.
On the % scale 0 is the no-effect control and ±100 the full control effect.

Amino acid sequences for entries named in this document (tags omitted).
UniProt P33261, whole entry, looked up: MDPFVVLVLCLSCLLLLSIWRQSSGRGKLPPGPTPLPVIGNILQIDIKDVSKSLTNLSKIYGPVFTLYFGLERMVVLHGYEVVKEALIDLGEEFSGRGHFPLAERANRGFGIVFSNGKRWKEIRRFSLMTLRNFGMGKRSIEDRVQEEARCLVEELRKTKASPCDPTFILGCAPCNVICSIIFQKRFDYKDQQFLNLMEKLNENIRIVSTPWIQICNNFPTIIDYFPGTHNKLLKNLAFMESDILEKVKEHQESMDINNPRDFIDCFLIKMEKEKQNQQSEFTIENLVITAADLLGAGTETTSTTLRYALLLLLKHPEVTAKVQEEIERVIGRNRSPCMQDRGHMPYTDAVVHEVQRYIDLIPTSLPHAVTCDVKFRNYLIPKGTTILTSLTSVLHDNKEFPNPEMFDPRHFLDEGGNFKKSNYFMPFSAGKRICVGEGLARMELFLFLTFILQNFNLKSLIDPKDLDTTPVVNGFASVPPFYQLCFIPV

This test addresses Cytochrome P450 2C19 (Homo sapiens) (UniProt P33261). As to the kind of experiment: Cytochrome panel assay with activity outcomes. Conditions: recombinant CYP, pro-luciferin dealkylation, luminescence, p450-cyp2c19; at 57.1 µM (top of the series).
With `O=c1[nH]c2ccccc2n1C1CCN(CCCC(c2ccc(F)cc2)c2ccc(F)cc2)CC1`, the activity, negative = inhibition was inactive: -26.9%.

The record behind these values is PubChem BioAssay AID1851 (National Center for Advancing Translational Sciences (NCATS), 2009).
